Experimental data from ChEMBL document CHEMBL4428025 (J Med Chem, 2016).

Amino acid sequences for entries named in this document (tags omitted). A change or cut given only in a name is not applied to a line headed by its entry.
UniProt P41146: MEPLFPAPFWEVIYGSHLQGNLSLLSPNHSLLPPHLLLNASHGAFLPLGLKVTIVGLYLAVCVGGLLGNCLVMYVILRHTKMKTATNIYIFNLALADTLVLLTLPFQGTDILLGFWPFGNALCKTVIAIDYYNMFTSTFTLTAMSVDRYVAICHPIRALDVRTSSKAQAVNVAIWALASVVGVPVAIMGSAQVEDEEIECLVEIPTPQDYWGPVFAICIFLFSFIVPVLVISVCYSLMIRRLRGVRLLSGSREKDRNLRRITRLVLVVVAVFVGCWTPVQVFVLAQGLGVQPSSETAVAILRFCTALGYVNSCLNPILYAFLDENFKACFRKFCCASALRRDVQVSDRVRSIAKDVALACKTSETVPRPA
UniProt P35372, whole entry, looked up: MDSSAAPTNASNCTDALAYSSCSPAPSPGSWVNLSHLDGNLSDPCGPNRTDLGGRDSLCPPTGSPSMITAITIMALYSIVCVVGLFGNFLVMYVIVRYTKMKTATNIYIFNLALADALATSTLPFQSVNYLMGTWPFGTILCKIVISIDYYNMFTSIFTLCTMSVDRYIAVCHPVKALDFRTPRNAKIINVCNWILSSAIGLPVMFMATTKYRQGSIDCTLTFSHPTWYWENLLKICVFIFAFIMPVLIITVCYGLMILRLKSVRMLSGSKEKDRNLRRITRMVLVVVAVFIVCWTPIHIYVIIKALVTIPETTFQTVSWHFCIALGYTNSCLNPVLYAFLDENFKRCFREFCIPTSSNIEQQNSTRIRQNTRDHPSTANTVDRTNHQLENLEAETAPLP

Experiments:
[1] = target: T1, Nociceptin receptor (Homo sapiens, UniProt P41146); test: Agonist activity at human nociceptin opioid receptor expressed in CHO cell membranes by GTPgamma(35)S binding assay
[2] = target: T1, Nociceptin receptor; test: Displacement of [125I][Tyr14]nociceptin/orphanin FQ from human nociceptin opioid receptor expressed in CHO cell membranes after 1 hr by microplate scintillation counting method
[3] = target: T2, Mu-type opioid receptor (Homo sapiens, UniProt P35372); test: Displacement of [3H]diprenorphine from human mu opioid receptor expressed in CHO cell membranes after 1 hr by microplate scintillation counting method
[4] = target: T2, Mu-type opioid receptor; test: Displacement of [3H]DAMGO from recombinant human mu opioid receptor expressed in CHO cell membranes after 60 mins by scintillation counting method

Row | SMILES | EC50 [1] [nM] | Ki [2] [nM] | Ki [3] [nM] | Ki [4] [nM]
1 | NCc1ccccc1C1(O)CC2CCC(C1)N2C(c1ccccc1Cl)c1ccccc1Cl (centres undefined) | 1.5 | 0.38 | 21 | 
2 | Cc1cccc2c1CC[C@H](CN1CCC(c3c(Cl)cccc3Cl)CC1)C[C@@H]2O |  |  |  | 58
